Reference: patent US4743541A, “Luminescent substrate preparation and its use in specific binding assays” (priority 1985, dated 1988)

Biological target: T1, horseradish peroxidase (HRP) (Armoracia rusticana, UniProt P00433)
T1 sequence (P00433 31-353): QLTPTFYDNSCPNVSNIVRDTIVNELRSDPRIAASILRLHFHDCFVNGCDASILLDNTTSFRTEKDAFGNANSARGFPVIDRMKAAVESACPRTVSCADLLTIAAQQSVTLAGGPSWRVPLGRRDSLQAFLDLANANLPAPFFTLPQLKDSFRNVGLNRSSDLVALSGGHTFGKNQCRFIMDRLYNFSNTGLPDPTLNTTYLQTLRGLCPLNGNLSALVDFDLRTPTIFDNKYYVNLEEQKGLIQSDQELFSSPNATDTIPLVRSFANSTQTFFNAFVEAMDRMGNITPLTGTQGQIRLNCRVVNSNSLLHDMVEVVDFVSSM
Test: Standardized test procedure for measuring luminol light output (HRP-catalyzed luminol/H2O2 reaction)
Format: biochemical
Conditions: relative to untreated commercial luminol; listed as luminol preparation
Protocol: A standardized test procedure for measuring luminol light output has been established. To 0.5 ml of 50 mM borate buffer, pH 9.4, are added 0.5 ml of 40 mM luminol in 45 mM NaOH, pH 11.0; 0.5 ml of 4 mM hydrogen peroxide in 0.01M phosphate buffered saline (PBS), pH 7.0; 0.4 ml of deionized water; and 0.1 ml of 200 mU/ml horseradish peroxidase (HRP) to yield a final 2.0 ml volume containing; 10 mM luminol; 1 mM H2 O2; 12.5 mM borate buffer, pH 9.4; and 20 mU HRP in an aqueous solution having a final pH of 9.4. The enzyme HRP is added last, the solution mixed and relative intensity readings taken on an Ames Fluorocolorimeter (Miles Labs, Inc., Elkhart, IN) at various time points from 1 minute to 2 hours.
The following table, Table I, illustrates the light output for luminol prepared by repeating the treatment procedure one to four times, compared to untreated luminol. Increasing the number of treatment sequences performed results in a continuing increase in the unit light intensity output of the activated luminol when tested in the standardized testing procedure. […] With this information, it is possible for the user of luminol to begin the recording of the reaction at any time during which the light intensity remains constant.

For `Nc1cccc2c(=O)[nH][nH]c(=O)c12` [Activated Luminol], the “Unit light output compared with commercially available, untreated luminol” value was “about at least a factor of ten; also recorded: approximately ten times greater; also recorded: substantially greater”.

“Also recorded” adds a separate entry of the source.
